CC50 and Activity data for 1 compound are collected here from ChEMBL document CHEMBL3997795, “Conjugates of 2,4-Dihydroxybenzoate and Salicylhydroxamate and Lipocations Display Potent Antiparasite Effects by Efficiently Targeting the Trypanosoma brucei and Trypanosoma congolense Mitochondrion” (J Med Chem, 2017).

The test system of one data set is HEK-293T. Nature of the data set: Cytostatic activity against HEK293T cells after 30 hrs by resazurin based fluorimetric assay. The class given is cell-based. As to conditions: human. For orientation: Alamar Blue is a resazurin reagent that responds to reducing activity.
The nature of data set [1]: Cytotoxicity against HEK cells up to 50 uM after 30 hrs by resazurin based fluorimetric assay. The class given is cell-based. Particulars: human.

Structures are written as SMILES.

One may read the CC50 as the concentration that lowers cell viability or growth by half. A high value points to better tolerance by the cells. In the data set with HEK-293T, `O=[As]c1ccccc1` (configuration not stated) registered a CC50 of 0.29 µM. Besides, the Activity result in data set [1] is on record as “Non-Toxic”.
